# Reported melting point values for industrial, environmental and drug-like chemicals

Source: data files of OPERA 2.9 (Mansouri et al.), github.com/kmansouri/OPERA.

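These are experimental values that the OPERA curators gathered from public databases to train and test their QSAR models. A listed value is a point estimate from one report or more. How each value was measured is not recorded, so precision varies. The measured form (salt, isomer or mixture) is not always the one drawn. Some upstream entries may be estimates or bounds without being marked so.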

The melting point is given in degrees Celsius. Cells with "–" have no entry in this list. "via" names the databases from which the curators took the value.

structure (SMILES),name,mp (°C),via
O=C1C2CC=CCC2C(=O)N1CCO (stereo not drawn),–,80,eChemPortal
Cc1ccc(C)c(SCC(=O)O)c1,"Acetic acid, [(2,5-dimethylphenyl)thio]-",74,OCHEM
CCCC(C)C(=O)Nc1ccc(Cl)c(Cl)c1 (stereo not drawn),"N-(3,4-Dichlorophenyl)-2-methylpentanamide",106,OCHEM
O=C1c2ccccc2S(=O)(=O)N1CCl,–,146,OCHEM
O=C(O)Cn1nnc(-c2cccs2)n1,(5-thien-2-yl-2H-tetrazol-2-yl)acetic acid,221,OCHEM
O=C(O)c1ccc2noc(-c3ccccc3)c2c1,3-Phenyl-benzo[c]isoxazole-5-carboxylic acid,243,OCHEM
O=C(O)Cn1cncn1,"1,2,4-Triazole-1-acetic acid",201.5,OCHEM
O=C(O)c1ccc(CS(=O)(=O)c2ccccc2)cc1,4-[(Benzenesulfonyl)methyl]benzoic acid,298,OCHEM
FC(F)(F)C(F)(F)C(F)(F)C(F)(F)C(F)(F)C(F)(F)CCSCCCCS,–,-17,eChemPortal
O=C(O)c1cnsn1,"1,2,5-thiadiazole-3-carboxylic acid",168,OCHEM
CC(C)c1ccc(C=O)cc1,4-Isopropylbenzaldehyde,-50.25,eChemPortal
CCCC1=CC(=O)OC1O (stereo not drawn),5-Hydroxy-4-propylfuran-2(5H)-one,-73.8,eChemPortal
Cc1cc(C)c2c(N)c(C(=O)O)sc2n1,"3-Amino-4,6-dimethylthieno[2,3-b]pyridine-2-carboxylic acid",146,OCHEM
Cc1c(C(=O)O)sc2nc[nH]c(=O)c12,–,250,OCHEM
CCC[C@H]1CC[C@H](C2CCC(CC)CC2)CC1 (stereo partly drawn),–,65.7,eChemPortal
Cc1ccc2c(c1)OCC(=O)CO2,Methyl benzodioxepinone,37.9,eChemPortal
CC(C)NS(=O)(=O)c1ccc(Cl)c(C(=O)O)c1,2-chloro-5-[(isopropylamino)sulfonyl]benzoic acid,148,OCHEM
Cn1c(NN)nc2ccccc2c1=O,2-hydrazino-3-methylquinazolin-4(3H)-one,151,OCHEM
O=C(O)Cn1cc([N+](=O)[O-])cn1,(4-nitro-1H-pyrazol-1-yl)acetic acid,154,OCHEM
COc1ccc2c(c1)C(=O)CCO2,6-methoxychroman-4-one,45,OCHEM
COC(=O)c1ccc(C(=O)OC)c(N=NC(C(C)=O)C(=O)Nc2ccc3[nH]c(=O)[nH]c3c2)c1 (stereo not drawn),–,305,eChemPortal
COc1c(Cl)cc(C(=O)O)cc1Cl,"Benzoic acid, 3,5-dichloro-4-methoxy-",153,OCHEM
Fc1cc2nc[nH]c2cc1F,"5,6-Difluorobenzimidazole",160,OCHEM
O=C1C=CC(=O)N1c1cc(Cl)cc(Cl)c1,"N-(3,5-Dichlorophenyl)maleimide",140,OCHEM
Cn1c(=S)[nH]c2sc3c(c2c1=O)CCCC3,–,305,OCHEM
Cc1ccc(C(=O)CCC(=O)O)cc1C,"4-(3,4-Dimethylphenyl)-4-oxobutanoic acid",128,OCHEM
CCCCCCCC[N+](C)(C)C.COS(=O)(=O)[O-],"1-Octanaminium, N,N,N-trimethyl-, methyl sulfate",68,eChemPortal
Nc1ccccc1C(=O)NCc1ccco1,2-amino-N-(furan-2-ylmethyl)benzamide,77,OCHEM
Cc1cccc(NC(=O)C2CCCNC2)n1 (stereo not drawn),N-(6-Methylpyridin-2-yl)piperidine-3-carboxamide,125,OCHEM
CC(C)[C@@H]1CC[C@@H](C)C[C@H]1OC(=O)OCCO,Menthyl glycol carbonate,52,eChemPortal
CC(C)c1cc(N)on1,3-isopropylisoxazol-5-amine,34,OCHEM
Nc1cc2c(cc1[N+](=O)[O-])OCCO2,"7-Nitro-2,3-dihydro-1,4-benzodioxin-6-amine",151,OCHEM
COc1c(Cl)cc(Cl)c(Cl)c1Cl,–,64,QSARDB
COCCOCCOCCOCCO,"2,5,8,11-Tetraoxatridecan-13-ol",-39,"PubChem, eChemPortal"
NS(=O)(=O)c1ccc(F)c(Cl)c1,3-chloro-4-fluorobenzenesulfonamide,108.5,OCHEM
CC(C)[C@H]1OCC[C@]2(C[C@H]3CC[C@]2(C)C3(C)C)O1,–,34,eChemPortal
CC(C)(C)N(NC(=O)c1ccccc1)C(=O)c1cccc(Cl)c1,N'-Benzoyl-3-chloro-N-(2-methyl-2-propanyl)benzohydrazide,180,OCHEM
COc1ccccc1NC(=O)C(N=Nc1ccc(Cl)cc1[N+](=O)[O-])C(C)=O (stereo not drawn),C.I. Pigment Yellow 73,263,eChemPortal
Nc1cc(C(=O)Nc2ccccc2)ccc1Cl,3-Amino-4-chloro-N-phenylbenzamide,200,OCHEM
O=C(Nc1ccc(O)cc1)c1ccc(Cl)cc1,4-chloro-N-(4-hydroxyphenyl)benzamide,247,OCHEM
Cc1ccc(C(C)C)c(OC(C)C(=O)O)c1 (stereo not drawn),2-(2-isopropyl-5-methylphenoxy)propanoic acid,62,OCHEM
OCc1ccc(N2CCCC2)cc1,(4-pyrrolidin-1-ylphenyl)methanol,62,OCHEM
CCOC(=O)CN(CC(=O)OCC)C(=O)Oc1c(C#N)c(C(=O)OC2C(C(C)(C)C)CC(C)CC2C(C)(C)C)c2[nH]c(-c3ccc(C(C)(C)C)cc3)nn12 (stereo not drawn),–,245.5,eChemPortal
CS(=O)(=O)O.CS(=O)(=O)O.Nc1c(N)n2n(c1=O)CCC2,"2,3-Diaminodihydropyrazolo pyrazolone dimethosulfonate",183.7,eChemPortal

The 4 highest values of mp among the entries above:

{"smiles": "Cn1c(=S)[nH]c2sc3c(c2c1=O)CCCC3", "mp (°C)": "305", "via": "OCHEM"}
{"smiles": "COC(=O)c1ccc(C(=O)OC)c(N=NC(C(C)=O)C(=O)Nc2ccc3[nH]c(=O)[nH]c3c2)c1", "stereo": "stereo not drawn", "mp (°C)": "305", "via": "eChemPortal"}
{"smiles": "O=C(O)c1ccc(CS(=O)(=O)c2ccccc2)cc1", "name": "4-[(Benzenesulfonyl)methyl]benzoic acid", "mp (°C)": "298", "via": "OCHEM"}
{"smiles": "COc1ccccc1NC(=O)C(N=Nc1ccc(Cl)cc1[N+](=O)[O-])C(C)=O", "stereo": "stereo not drawn", "name": "C.I. Pigment Yellow 73", "mp (°C)": "263", "via": "eChemPortal"}